In assay [1] the test system is PRMT1 (protein arginine N-methyltransferase 1). Kind of assay: PRMT1 binders on small-molecule microarrays, primary screen, biochemical, small-molecule microarray, 635 nm fluorescence (AID 1088).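 Also: binding of Prmt1 protein to compounds spotted on small-molecule microarray slides.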 Conditions: small-molecule microarray binding, higher = more signal.
A short description of assay [2]: yeast growth modulation, basal conditions, primary screen, YJM789 clinical isolate, OD600, 24 h (AID 1089).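 Also: growth of clinical yeast isolate S. cerevisiae YJM 789 seeded 1000 cells per well; test concentration not given here.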 The settings on record: S. cerevisiae YJM789 growth, higher = more signal, called active from +8 up or from −8 down.
For assay [3], the target named is Torsin-1A-interacting protein 2 (Homo sapiens) (UniProt Q8NFQ8). Kind of assay: LULL1 binders on small-molecule microarray, primary screen, cell lysate, human LULL1 lysate, 635/667 nm fluorescence (AID 1092).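 Also: probe is lysate of COS7 cells overexpressing human LULL1; score merges per-feature 667 nm fluorescence with signal-to-noise.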 Conditions: hLULL1 lysate binding, 635 nm fluorescence, higher = more signal.
Assay [4] in a line: small-molecule microarray binders of probe aLefty2, primary screen, biochemical, biotinylated probe, 635/667 nm fluorescence (AID 1094).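 Also: score merges spot fluorescence near 667 nm with spot signal-to-noise ratio.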 Conditions: higher = more signal.
In assay [5] the test system is Noggin (protein binding on small-molecule microarray). Nature of the assay: Noggin binders on small-molecule microarray, primary screen, biochemical, 635/667 nm fluorescence (AID 1095).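 Also: score merges 667 nm feature fluorescence with signal to noise over triplicate slides.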 Conditions: 635 nm fluorescence, higher = more signal.
The target in assay [6] is Neurogenic locus notch homolog protein 3 (Homo sapiens) (UniProt Q9UM47). Nature of the assay: NOTCH3 binders on small-molecule microarray, primary screen, biochemical, 635/667 nm fluorescence (AID 1096). Conditions: NOTCH3 binding, 635 nm fluorescence, higher = more signal.
Assay [7] is described as follows: small-molecule microarray binders of probe aEGFR, primary screen, biochemical, biotinylated probe, 635/667 nm fluorescence (AID 1097).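 Also: probe is a biotinylated anti-EGFR antibody binding compounds printed on slides; score combines fluorescence near 667 nm and signal to noise of each spot.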 Conditions: higher = more signal.
A short description of assay [8]: small-molecule microarray binders of probe aDKK1, primary screen, biochemical, biotinylated probe, 635/667 nm fluorescence (AID 1099).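 Also: score merges 667nm spot fluorescence with signal to noise across triplicate slides; reference of the scale not given here.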 Conditions: higher = more signal.
Assay [9] in a line: small-molecule microarray binders of probe aCHRDL2, primary screen, biochemical, biotinylated probe, 635/667 nm fluorescence (AID 1100). Conditions: higher = more signal.
Assay [10] is described as follows: splicing luciferase reporter signal modulators, primary screen, spliceosome inhibition project, cell-based, HEK293, splice +/- reporter (AID 1101).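 Also: HEK293 cells carrying a splicing-competent luciferase reporter gene; test concentration not given here.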 Conditions: luminescence, 24 h, higher = more signal, called active from +8 up or from −8 down.

By UniProt entry, the sequences of proteins in these tests, tags left out. Where a name states a change or a piece, a line headed by the entry shows the natural chain unless it says otherwise.
UniProt Q8NFQ8: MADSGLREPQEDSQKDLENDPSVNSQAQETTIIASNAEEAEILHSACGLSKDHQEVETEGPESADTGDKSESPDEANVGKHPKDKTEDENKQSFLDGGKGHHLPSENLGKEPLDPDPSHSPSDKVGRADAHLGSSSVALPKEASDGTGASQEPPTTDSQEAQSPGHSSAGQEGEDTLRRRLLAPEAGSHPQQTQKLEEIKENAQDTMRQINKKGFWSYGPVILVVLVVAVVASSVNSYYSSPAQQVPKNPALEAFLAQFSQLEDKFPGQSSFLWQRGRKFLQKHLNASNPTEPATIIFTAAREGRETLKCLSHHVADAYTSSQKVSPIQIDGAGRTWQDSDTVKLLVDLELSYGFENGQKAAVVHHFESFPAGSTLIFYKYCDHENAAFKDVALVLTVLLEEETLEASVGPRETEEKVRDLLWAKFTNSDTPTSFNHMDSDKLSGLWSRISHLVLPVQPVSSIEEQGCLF
UniProt Q9UM47, whole entry, looked up: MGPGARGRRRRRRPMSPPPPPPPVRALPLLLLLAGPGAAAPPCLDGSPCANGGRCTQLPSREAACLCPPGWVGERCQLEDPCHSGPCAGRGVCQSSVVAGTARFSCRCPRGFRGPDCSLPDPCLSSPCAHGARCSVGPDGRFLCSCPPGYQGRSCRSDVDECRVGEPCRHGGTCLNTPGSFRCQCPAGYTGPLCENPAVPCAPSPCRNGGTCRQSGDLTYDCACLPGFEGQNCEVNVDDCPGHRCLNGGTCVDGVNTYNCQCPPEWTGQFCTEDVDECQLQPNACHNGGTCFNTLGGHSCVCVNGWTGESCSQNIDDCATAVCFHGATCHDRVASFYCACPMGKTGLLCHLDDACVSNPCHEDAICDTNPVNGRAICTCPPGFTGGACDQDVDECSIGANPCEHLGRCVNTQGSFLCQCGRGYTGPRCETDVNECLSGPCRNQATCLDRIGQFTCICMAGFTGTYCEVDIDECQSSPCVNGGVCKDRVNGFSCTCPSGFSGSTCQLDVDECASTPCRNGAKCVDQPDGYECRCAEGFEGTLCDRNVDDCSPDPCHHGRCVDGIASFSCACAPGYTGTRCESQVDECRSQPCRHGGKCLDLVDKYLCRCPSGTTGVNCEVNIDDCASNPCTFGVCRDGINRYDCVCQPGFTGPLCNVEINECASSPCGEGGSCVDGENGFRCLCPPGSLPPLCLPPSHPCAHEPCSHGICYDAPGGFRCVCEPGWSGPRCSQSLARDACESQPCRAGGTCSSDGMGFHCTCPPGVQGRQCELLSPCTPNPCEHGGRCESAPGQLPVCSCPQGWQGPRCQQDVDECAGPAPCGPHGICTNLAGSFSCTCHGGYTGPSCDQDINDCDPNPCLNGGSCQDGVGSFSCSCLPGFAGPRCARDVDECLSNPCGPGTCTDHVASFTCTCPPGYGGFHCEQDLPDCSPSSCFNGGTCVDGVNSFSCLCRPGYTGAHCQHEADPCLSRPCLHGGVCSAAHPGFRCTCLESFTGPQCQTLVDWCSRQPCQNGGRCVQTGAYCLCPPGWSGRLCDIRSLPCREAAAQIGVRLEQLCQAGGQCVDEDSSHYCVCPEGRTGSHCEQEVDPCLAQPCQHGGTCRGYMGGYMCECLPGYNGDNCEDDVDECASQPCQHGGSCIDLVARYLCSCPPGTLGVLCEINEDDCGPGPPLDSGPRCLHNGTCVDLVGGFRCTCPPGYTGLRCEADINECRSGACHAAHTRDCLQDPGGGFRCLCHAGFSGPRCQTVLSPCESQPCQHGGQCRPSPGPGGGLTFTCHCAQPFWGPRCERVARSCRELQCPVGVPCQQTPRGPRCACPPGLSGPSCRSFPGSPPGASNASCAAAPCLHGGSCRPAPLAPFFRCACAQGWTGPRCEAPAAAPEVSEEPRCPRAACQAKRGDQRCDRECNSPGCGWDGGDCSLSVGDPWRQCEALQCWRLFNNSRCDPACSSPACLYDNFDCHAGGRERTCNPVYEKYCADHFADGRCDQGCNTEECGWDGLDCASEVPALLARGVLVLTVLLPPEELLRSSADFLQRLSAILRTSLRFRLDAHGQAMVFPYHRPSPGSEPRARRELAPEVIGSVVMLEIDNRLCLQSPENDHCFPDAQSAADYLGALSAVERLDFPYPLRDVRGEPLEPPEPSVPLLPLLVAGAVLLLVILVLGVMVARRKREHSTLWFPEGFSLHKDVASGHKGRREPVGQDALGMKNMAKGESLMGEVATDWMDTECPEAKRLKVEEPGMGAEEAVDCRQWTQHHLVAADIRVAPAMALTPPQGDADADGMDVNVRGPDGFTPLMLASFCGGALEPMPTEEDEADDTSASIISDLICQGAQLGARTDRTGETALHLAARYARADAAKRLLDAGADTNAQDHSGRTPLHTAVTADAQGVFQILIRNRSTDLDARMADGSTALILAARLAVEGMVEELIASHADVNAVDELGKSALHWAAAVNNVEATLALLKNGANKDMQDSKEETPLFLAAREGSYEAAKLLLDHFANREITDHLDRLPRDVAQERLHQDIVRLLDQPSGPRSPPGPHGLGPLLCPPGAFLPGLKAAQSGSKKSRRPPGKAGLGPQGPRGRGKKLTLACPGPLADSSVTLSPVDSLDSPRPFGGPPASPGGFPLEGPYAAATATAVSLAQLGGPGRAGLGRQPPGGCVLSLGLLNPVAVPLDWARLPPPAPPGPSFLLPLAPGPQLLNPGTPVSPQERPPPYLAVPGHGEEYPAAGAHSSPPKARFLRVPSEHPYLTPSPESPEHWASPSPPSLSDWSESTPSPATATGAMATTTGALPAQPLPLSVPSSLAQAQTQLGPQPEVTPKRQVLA

Molecules are shown by their SMILES. This is a selection; strong and weak results do not stand in their true shares. The source made the active and inactive calls.

`CC1C=C(CCCO)C/C(=N/P(=O)(Oc2ccccc2)Oc2ccccc2)N1Cc1cccc(OC(F)(F)F)c1` (stereo not given): the composite z-score in assay [1] is 0.908; in assay [3], 2.92; in assay [4], -0.0924; in assay [5] it was 0.421; in assay [6], 0.322; in [7] it was -0.0688. Further, the composite z-score in assay [8] turned out to be 0.164; in [9], 0.0318. In addition, the z-score was inactive: -0.367 in assay [2] and inactive: -0.0742 in assay [10].

For the compound `CN1/C(=N\P(=O)(Oc2ccccc2)Oc2ccccc2)CC(CCCO)=CC1c1cccs1` (stereo not given), the composite z-score in assay [1] is -0.0606; in [3] it was 1.71; in [4] it was 0.167; in assay [5] it was 0.57; in [6], 0.454; in assay [7], -0.0117. The results for the composite z-score in [8] and in assay [9] were 0.577 and 0.711, respectively. The z-score is inactive: 0.329 in assay [2] and inactive: 0.139 in assay [10].

Take `CN1/C(=N\P(=O)(Oc2ccccc2)Oc2ccccc2)CC(c2ccc(CO)cc2)=CC1C1CC1` (stereo not given): the composite z-score in [1] was 1.29; in [3], 3.12; in [4] it was -0.258; in assay [5], -0.0778; in assay [6], 0.631; in assay [7], -0.339. In addition, the composite z-score in assay [8] is -0.336; in [9], -0.364. Further, the z-score in [2] is inactive: 0.93; in assay [10], inactive: -0.985.

For the compound `O=P(/N=C1/CC(CCCO)=CC(c2ccc(CN3CCCC3)cc2)N1Cc1cc2c(cc1Br)OCO2)(Oc1ccccc1)Oc1ccccc1` (stereo not given), the composite z-score was 0.854 in assay [1]; 2.52 in [3]; -0.0982 in assay [4]; -0.762 in assay [5]; 0.21 in [6]; -0.096 in assay [7]. Besides, the composite z-score in assay [8] was -0.0436; in assay [9] it was 0.444. The results for the z-score in assay [2] and in assay [10] were inactive: -2.39 and inactive: 0.445, respectively.

Take `CN1/C(=N\P(=O)(Oc2ccccc2)Oc2ccccc2)CC(CCCO)=CC1C1CC1` (stereo not given): the composite z-score is 1.07 in [1]; 2.21 in assay [3]; 0.146 in [4]; -0.203 in assay [5]; 0.252 in assay [6]; 0.356 in assay [7]. Also, the composite z-score came out at 0.863 in [8] and 0.645 in assay [9]. Further, the z-score in [2] is inactive: -1.27; in assay [10], inactive: -0.584.

As for `O=P(/N=C1/CC(CCCO)=CC(C2CC2)N1Cc1sc2ccccc2c1Cl)(Oc1ccccc1)Oc1ccccc1` (stereo not given), the composite z-score was 1.4 in assay [1]; 2.88 in [3]; 0.003 in assay [4]; 0.0223 in [5]; 0.705 in assay [6]; -0.0565 in assay [7]. Besides, the figures for the composite z-score in assay [8] and in [9] were 0.528 and 0.642, respectively. The z-score in assay [2] was inactive: 0.863; in assay [10] it was inactive: -0.195.

For the compound `COP(=O)(/N=C1/CC(CCCO)=CC(c2ccc(CN3CCCC3)cc2)N1Cc1cccc(OC(F)(F)F)c1)OC` (stereo not given), the composite z-score turned out to be 1.18 in [1]; 1.37 in [3]; 0.195 in assay [4]; 0.996 in assay [5]; 0.808 in [6]; 0.0378 in assay [7]. Besides, the composite z-score in assay [8] was determined as 0.842; in [9], 0.441. Moreover, the figures for the z-score in assay [2] and in [10] were inactive: -0.888 and inactive: -1.05, respectively.

Turning to `COP(=O)(/N=C1/CC(CCCO)=CC(C)N1Cc1cccc(OC(F)(F)F)c1)OC` (stereo not given), the composite z-score amounted to 0.0444 in assay [1]; 1.71 in [3]; 0.145 in [4]; 0.315 in assay [5]; 0.234 in [6]; 0.09 in assay [7]. Further, the composite z-score in [8] amounted to 0.642; in assay [9], 0.667. Moreover, the z-score in assay [2] is inactive: -1.18; in assay [10], inactive: -1.4.

As for `O=P(/N=C1/CC(CCCO)=CC(c2cccs2)N1Cc1cccc(OC(F)(F)F)c1)(Oc1ccccc1)Oc1ccccc1` (stereo not given), the composite z-score was 1.58 in assay [1]; 2.71 in assay [3]; 0.131 in assay [4]; -0.0666 in [5]; 0.703 in assay [6]; -0.0476 in assay [7]. In addition, the figures for the composite z-score in assay [8] and in [9] were 0.511 and 0.737, respectively. The z-score in assay [2] was inactive: 0.0167; in assay [10], inactive: -0.656.

Regarding `COP(=O)(/N=C1/CC(c2ccc(CO)cc2)=CC(C2CC2)N1Cc1sc2ccccc2c1Cl)OC` (stereo not given), the composite z-score came to 0.811 in assay [1]; 0.298 in assay [3]; 0.714 in assay [4]; 0.65 in assay [5]; 1 in assay [6]; 0.733 in assay [7]. The composite z-score in [8] came to 1.43; in [9] it was 1.24. The z-score in [2] is inactive: -4.7; in [10], inactive: -2.77.

Take `COP(=O)(/N=C1/CC(CCCO)=CC(c2ccc(CN3CCCC3)cc2)N1C)OC` (stereo not given): the composite z-score in assay [1] was 0.0079; in assay [3], 1.08; in assay [4], 0.288; in [5], 0.177; in [6] it was -0.654; in [7], 0.154. Also, the composite z-score in [8] came out at 0.864; in assay [9] it was 0.794. Further, the z-score in assay [2] is inactive: -1.12; in [10], inactive: -1.1.

Regarding `COP(=O)(/N=C1/CC(CCCO)=CC(C2CC2)N1C)OC` (stereo not given), the composite z-score is 0.0908 in assay [1]; 1.27 in assay [3]; -0.188 in assay [4]; 0.278 in assay [5]; -0.628 in assay [6]; -0.0831 in assay [7]. For the same compound, the composite z-score in assay [8] is -0.291; in assay [9], -0.118. The z-score in assay [2] is inactive: -1.03; in assay [10] it was inactive: -1.6.

`O=P(/N=C1/CC(c2ccc(CO)cc2)=CC(C2CC2)N1Cc1sc2ccccc2c1Cl)(Oc1ccccc1)Oc1ccccc1` (stereo not given): the composite z-score in assay [1] was 1.54; in assay [3] it was 2.76; in [4], 0.0802; in assay [5] it was 1.26; in [6], 1.1; in [7] it was 0.047. Moreover, the figures for the composite z-score in assay [8] and in assay [9] were -0.0058 and 0.233, respectively. In addition, the z-score in assay [2] is inactive: -1.92; in assay [10] it was inactive: -0.524.

`COP(=O)(/N=C1/CC(CCCO)=CC(C2CC2)N1Cc1cccc(OC(F)(F)F)c1)OC` (stereo not given): the composite z-score in assay [1] was -0.0741; in [3] it was 1.26; in assay [4], -0.152; in assay [5], 0.0186; in assay [6] it was -0.261; in [7], -0.0422. The composite z-score in [8] is -0.0727; in assay [9] it was 0.5. For the same compound, the z-score in [2] is inactive: -1.24; in [10], inactive: -1.65.

`COP(=O)(/N=C1/CC(CCCO)=CC(C2CC2)N1Cc1cc2c(cc1Br)OCO2)OC` (stereo not given): the composite z-score is 0.385 in assay [1]; 1.34 in assay [3]; 0.23 in assay [4]; 0.347 in assay [5]; -0.0817 in assay [6]; 0.201 in assay [7]. Moreover, the composite z-score in assay [8] was found to be 0.809; in assay [9], 0.757. Further, the z-score in assay [2] is inactive: -1.76; in assay [10], inactive: -0.491.
